Results published in patent US7960427B2, “5-hydroxyindole-3-carboxylate derivatives and uses thereof” (priority 2004, dated 2011).

Assays:
[1] = system: influenza A virus, strain A/jifang/90-15; assay type: cell-based
[2] = system: Madin-Darby canine kidney (MDCK) cells

Question: `NC(=O)c1ncn([C@@H]2O[C@H](CO)[C@@H](O)[C@H]2O)n1` [Ribovirin, reference compound] was tested. Which SI [1] did it give?
Answer: The SI was >29.57.

Question: What about the TC50 [2] of the same compound?
Answer: The TC50 was >1000 µg/mL.
